Results on one compound are retold here after patent US7579371B2, “Methods of using [3.2.0] heterocyclic compounds and analogs thereof” (Nereus Pharmaceuticals, Inc., priority 2004, dated 2009).

By UniProt entry, the sequences of proteins in these tests, tags left out. Residues count along the entry.
UniProt G1T4Q9, 1-263: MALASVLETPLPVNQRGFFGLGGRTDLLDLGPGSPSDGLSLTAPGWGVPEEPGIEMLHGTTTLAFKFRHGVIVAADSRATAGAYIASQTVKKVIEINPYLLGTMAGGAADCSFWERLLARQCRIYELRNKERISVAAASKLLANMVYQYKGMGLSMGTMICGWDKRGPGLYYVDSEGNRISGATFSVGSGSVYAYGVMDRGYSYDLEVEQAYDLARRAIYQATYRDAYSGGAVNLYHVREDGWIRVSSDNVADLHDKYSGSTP

In experiment [1] the target is T1, rabbit muscle 20S proteasome, trypsin-like activity (Oryctolagus cuniculus, UniProt G1SWK8).
T1 sequence (G1SWK8 1-271): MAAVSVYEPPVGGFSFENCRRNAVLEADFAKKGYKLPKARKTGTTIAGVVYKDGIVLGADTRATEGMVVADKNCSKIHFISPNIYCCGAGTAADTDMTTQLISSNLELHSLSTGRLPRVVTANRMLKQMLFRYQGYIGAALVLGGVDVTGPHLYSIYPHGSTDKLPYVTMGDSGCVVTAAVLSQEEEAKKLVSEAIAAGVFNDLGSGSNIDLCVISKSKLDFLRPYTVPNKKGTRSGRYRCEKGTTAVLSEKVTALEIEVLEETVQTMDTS
As to the kind of experiment: Trypsin-like activity of purified rabbit 20S proteasome (Boc-LRR-AMC).

The target in experiment [2] is rabbit muscle 20S proteasome, chymotrypsin-like activity (Oryctolagus cuniculus, UniProt G1T4Q9). As to the kind of experiment: Chymotrypsin-like activity of purified rabbit muscle 20S proteasome (suc-LLVY-AMC). In kind it is biochemical.

Usually EC50 stands for the concentration needed to bring the measured effect to its halfway point. Read a high EC50 as weaker potency. For the compound `C[C@@]12OC(=O)[C@]1([C@@H](O)[C@@H]1C=CCCC1)NC(=O)[C@@H]2CCCl` [Formula II-16, Salinosporamide A], the EC50 in experiment [1] is about 10 nM; in experiment [2] it was 2 to 11 nM.
